This note sets out measurements from ChEMBL document CHEMBL2321806, “Optimization of peptide hydroxamate inhibitors of insulin-degrading enzyme reveals marked substrate-selectivity” (J Med Chem, 2013).

Chains of the proteins cited; added tags and fusions are not shown.
UniProt P14735, whole entry: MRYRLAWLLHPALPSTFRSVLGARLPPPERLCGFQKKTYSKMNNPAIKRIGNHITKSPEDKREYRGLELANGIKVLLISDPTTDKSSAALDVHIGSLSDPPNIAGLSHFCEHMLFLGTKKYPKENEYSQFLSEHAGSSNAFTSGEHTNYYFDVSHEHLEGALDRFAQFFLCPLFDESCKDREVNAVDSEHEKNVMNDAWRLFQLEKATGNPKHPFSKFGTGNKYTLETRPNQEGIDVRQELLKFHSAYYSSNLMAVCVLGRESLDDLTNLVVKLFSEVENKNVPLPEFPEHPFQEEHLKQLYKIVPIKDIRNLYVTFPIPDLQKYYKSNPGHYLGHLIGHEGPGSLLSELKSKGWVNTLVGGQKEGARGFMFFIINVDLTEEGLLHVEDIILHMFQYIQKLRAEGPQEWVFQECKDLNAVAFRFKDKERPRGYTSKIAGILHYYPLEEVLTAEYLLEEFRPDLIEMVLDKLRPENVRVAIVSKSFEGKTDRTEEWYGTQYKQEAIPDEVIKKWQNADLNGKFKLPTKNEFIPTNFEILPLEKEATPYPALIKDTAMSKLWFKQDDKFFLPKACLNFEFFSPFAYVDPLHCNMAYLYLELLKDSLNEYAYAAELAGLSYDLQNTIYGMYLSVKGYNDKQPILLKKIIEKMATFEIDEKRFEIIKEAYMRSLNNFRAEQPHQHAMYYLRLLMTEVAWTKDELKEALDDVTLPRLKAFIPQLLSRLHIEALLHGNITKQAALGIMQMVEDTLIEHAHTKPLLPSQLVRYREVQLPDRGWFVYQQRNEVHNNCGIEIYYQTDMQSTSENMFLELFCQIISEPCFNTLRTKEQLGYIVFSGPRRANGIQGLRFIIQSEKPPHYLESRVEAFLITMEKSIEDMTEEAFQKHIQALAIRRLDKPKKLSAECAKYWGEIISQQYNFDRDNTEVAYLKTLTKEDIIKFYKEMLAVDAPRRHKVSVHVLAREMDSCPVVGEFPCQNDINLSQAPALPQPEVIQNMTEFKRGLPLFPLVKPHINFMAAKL

In test [1] the target is T1, Insulin-degrading enzyme (Homo sapiens, UniProt P14735). Kind of test: Inhibition of human recombinant IDE-mediated FRET1 degradation. The settings on record: read-out: Ki(app).
Test [2] has as its target T1, Insulin-degrading enzyme. In words: Selectivity ratio of apparent Ki for human recombinant IDE-mediated insulin degradation to apparent Ki for human recombinant IDE-mediated FRET1 degradation.

For `N=C(N)NCCC[C@H](NC(=O)[C@H](Cc1ccc2ccccc2c1)[C@H](O)C(=O)NO)C(=O)N[C@@H](Cc1c[nH]c2ccccc12)C(N)=O`, at Insulin-degrading enzyme [1], the Ki was 18 µM.
Same read-out and setting: to `NC(=O)[C@H](Cc1c[nH]c2ccccc12)NC(=O)[C@H](CCCN=C(N)N)NC(=O)[C@H](Cc1ccc2ccccc2c1)[C@@H](O)C(=O)NO` belongs 0.498 µM.
`N=C(N)NCCC[C@H](NC(=O)[C@@H](CC(=O)NO)Cc1ccc2ccccc2c1)C(=O)N[C@@H](Cc1c[nH]c2ccccc12)C(=O)N[C@@H](CCC(=O)O)C(N)=O`: the Ratio Ki(app) at Insulin-degrading enzyme [2] was 10.
